Test system: HaCaT cells
Assay: Cytotoxicity, MTT assay
Format: cell-based, human
Settings: 1.56 µM, 24 h
Description: We used the MTT assay to evaluate the toxicity of the peptides toward human skin epithelial cells (HaCaT) as previously described. Briefly, HaCaT cells were seeded at a density of 2 × 10^4 cells per well in 96-well microtiter plates in Dulbecco’s modified Eagle’s medium (DMEM) containing 10% foetal bovine serum (FBS) at 37 °C under 5% CO2 atmosphere. The next day, peptides were added to each well at various final concentrations (higher concentration of 200 µM). After 24 h incubation, culture supernatants were removed. 0.5 mg/mL MTT was added to each well, and the plates were incubated for 4 h at 37 °C. The medium was replaced by dimethyl sulfoxide (DMSO) to dissolve the formazan crystals formed in the wells. The absorbance at 570 nm was measured using a Versa-Max microplate ELISA reader (Molecular Devices). The viability rate was calculated using the following formula: Cell viability (%) = (absorbance of treated sample)/(absorbance of control) × 100.

SMILES: CC[C@H](C)[C@H](NC(=O)CN)C(=O)NCC(=O)N[C@@H](C)C(=O)N[C@H](C(=O)N[C@@H](CC(C)C)C(=O)N[C@@H](CCCCN)C(=O)N[C@H](C(=O)N[C@@H](CC(C)C)C(=O)N[C@H](C(=O)N[C@H](C(=O)NCC(=O)N[C@@H](CC(C)C)C(=O)N1CCC[C@H]1C(=O)N[C@@H](C)C(=O)N[C@@H](CC(C)C)C(=O)N[C@H](C(=O)N[C@@H](CO)C(=O)N[C@@H](Cc1c[nH]c2ccccc12)C(=O)N[C@H](C(=O)N[C@@H](CCCCN)C(=O)N[C@@H](CCCNC(=N)N)C(=O)N[C@@H](CCCCN)C(=O)N[C@@H](CCCNC(=N)N)C(=O)N[C@@H](CCC(N)=O)C(=O)N[C@@H](CCC(N)=O)C(N)=O)[C@@H](C)CC)[C@@H](C)CC)[C@@H](C)O)[C@@H](C)O)C(C)C)C(C)C [Melittin, reference compound]
- survival rate of HaCaT cells: 11.29%
